# According to article PMC3747818:
# Protein sequences, listed by entry. Tags and fused reporters are not part of them. Lines headed by an entry give the natural chain unless they say otherwise; changes in a name come on top.
# UniProt Q9Y4X5: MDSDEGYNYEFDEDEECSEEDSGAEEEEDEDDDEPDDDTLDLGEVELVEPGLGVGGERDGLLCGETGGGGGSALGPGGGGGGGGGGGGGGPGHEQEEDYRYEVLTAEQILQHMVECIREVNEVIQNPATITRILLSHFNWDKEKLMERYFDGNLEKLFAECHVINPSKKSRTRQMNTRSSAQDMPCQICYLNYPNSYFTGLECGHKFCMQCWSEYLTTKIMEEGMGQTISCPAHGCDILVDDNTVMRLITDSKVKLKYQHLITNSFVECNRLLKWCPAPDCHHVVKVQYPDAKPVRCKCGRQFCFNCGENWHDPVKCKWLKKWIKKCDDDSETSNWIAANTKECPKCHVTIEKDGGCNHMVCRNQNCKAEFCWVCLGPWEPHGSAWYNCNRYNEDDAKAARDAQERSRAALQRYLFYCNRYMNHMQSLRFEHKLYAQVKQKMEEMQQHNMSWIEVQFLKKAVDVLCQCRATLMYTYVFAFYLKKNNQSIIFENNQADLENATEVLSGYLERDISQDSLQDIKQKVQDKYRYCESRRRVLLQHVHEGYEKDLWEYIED
# UniProt P68036, whole entry: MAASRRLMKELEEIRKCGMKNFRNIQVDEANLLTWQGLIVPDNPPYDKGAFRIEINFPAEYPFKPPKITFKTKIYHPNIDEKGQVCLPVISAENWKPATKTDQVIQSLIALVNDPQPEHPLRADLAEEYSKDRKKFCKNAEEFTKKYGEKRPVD
# pKd: −log10 of the molar value.
# Biological target: HHARIΔAriadne (deletion mutant of HHARI lacking the Ariadne domain) (human) (UniProt Q9Y4X5)
# Assay: ITC
substance,measurement,value
UbcH7 (from UniProt P68036 1-154) (enzyme),pKd,6.72
